Test results as given in doi:10.1101/2020.11.09.375162v1 (biorxiv, 2020).

The chains behind the UniProt entries cited, without tags or fusion partners.
UniProt P34972, whole entry: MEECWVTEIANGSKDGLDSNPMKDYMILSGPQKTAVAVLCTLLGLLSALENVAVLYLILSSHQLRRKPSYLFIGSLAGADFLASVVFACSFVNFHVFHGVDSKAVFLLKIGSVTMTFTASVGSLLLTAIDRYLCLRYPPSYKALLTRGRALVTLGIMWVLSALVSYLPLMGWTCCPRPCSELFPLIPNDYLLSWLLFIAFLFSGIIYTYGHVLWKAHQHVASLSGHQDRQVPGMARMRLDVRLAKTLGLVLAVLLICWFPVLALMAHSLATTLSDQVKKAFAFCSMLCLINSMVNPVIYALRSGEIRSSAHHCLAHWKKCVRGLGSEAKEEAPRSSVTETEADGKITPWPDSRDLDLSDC
UniProt P47936, whole entry: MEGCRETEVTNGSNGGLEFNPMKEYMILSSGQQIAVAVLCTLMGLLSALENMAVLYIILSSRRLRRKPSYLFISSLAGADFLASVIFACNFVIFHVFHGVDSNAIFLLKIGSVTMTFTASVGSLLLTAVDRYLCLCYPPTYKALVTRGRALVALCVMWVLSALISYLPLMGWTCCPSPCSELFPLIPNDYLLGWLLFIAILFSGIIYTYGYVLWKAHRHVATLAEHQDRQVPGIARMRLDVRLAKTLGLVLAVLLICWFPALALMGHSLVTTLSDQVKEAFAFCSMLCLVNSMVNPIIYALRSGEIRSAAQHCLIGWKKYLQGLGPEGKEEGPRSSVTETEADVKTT
UniProt P21554, whole entry: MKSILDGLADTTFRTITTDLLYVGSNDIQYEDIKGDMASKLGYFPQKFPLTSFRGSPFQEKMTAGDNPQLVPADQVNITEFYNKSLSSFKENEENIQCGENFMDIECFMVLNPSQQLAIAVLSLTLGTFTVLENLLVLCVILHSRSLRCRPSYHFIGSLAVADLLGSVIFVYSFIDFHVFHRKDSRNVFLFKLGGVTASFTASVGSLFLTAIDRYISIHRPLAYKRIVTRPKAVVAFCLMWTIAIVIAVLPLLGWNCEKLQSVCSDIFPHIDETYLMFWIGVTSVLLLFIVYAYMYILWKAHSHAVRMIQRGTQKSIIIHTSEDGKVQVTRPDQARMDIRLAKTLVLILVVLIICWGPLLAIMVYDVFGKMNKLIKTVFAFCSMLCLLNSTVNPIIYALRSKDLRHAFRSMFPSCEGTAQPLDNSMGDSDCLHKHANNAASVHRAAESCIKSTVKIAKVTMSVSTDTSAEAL

Experiments:
[1] = target: human CB2 receptor (hCB2) (Homo sapiens, UniProt P34972); test: [3H]-CP55940 competition, membranes; type: binding
[2] = target: T1, mouse CB2 receptor (mCB2) (Mus musculus, UniProt P47936); test: [3H]-CP55940 competition, membranes; type: binding
[3] = target: T2, human CB1 receptor (hCB1) (Homo sapiens, UniProt P21554); test: cAMP assay, CHO cells; type: cell-based
[4] = target: T2, human CB1 receptor (hCB1); test: [3H]-CP55940 competition, membranes; type: binding
[5] = target: T1, mouse CB2 receptor (mCB2); test: cAMP assay, CHO cells; type: cell-based

With `CC(C)(C)C(NC(=O)c1cc(OCC2CC2)c(C2CC2)cn1)c1nccs1` (centres unmarked) the pKi [1] was 7.65, the pKi [2] was 9.21 and the “cAMP pEC50” value [3] was under 5.
In the case of `CC1(F)CN(c2ccc(C(=O)N3CC(F)(F)C[C@H]3C(N)=O)nc2OCC2CC2)C1`, the pKi [4] is reported as under 5 and the “cAMP pEC50” value [5] is reported as under 5.
